Measurements reported in PubChem BioAssay AID1454 (National Center for Advancing Translational Sciences (NCATS), 2008).
The entries are a selection whose mix differs from that of the whole data set. Some tests of the compounds listed are not included; inactive here does not mean inactive elsewhere. Records with an inconclusive call do not appear. Calls of active or inactive are those of the source. Calls follow the shape of the dose curve; as a rule, active = well fitted inhibition curve with a large enough effect; inconclusive = small, poorly fitted or top-dose-only effect, or effect the other way; inactive = flat fitted curve, though single readings scatter.

test: qHTS Assay for Inhibitors of the ERK Signaling Pathway using a Homogeneous Screening Assay; Stimulation with EGF; conditions: HEK293-V1b, EGF-stimulated phospho-ERK AlphaScreen; at 11.5 µM unless noted;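 also: plate controls were stimulated vehicle wells for no effect and unstimulated vehicle basal for full effect; nearly all actives have a fitted effect of over 55% in size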

Row | Structure (SMILES) | activity change, negative = inhibition
1 | COc1cccc(C(=O)NCC2(N3CCCCC3)CCCCC2)c1 | inactive: -2.95%
2 | COc1ccc(Br)c(C(=O)NCC2(N3CCCCC3)CCCCC2)c1 | inactive: 2.92% [at 57.5 µM]
3 | CCN(CC)CC(C)C(C)OC(=O)C(O)(c1ccccc1)c1ccccc1 (stereo not drawn) | inactive: -2.13% [at 57.5 µM]
4 | O=C(NCC1(N2CCCCC2)CCCCC1)c1cc([N+](=O)[O-])ccc1Cl | inactive: -5.85% [at 57.5 µM]
5 | C=CCN1CCN(CCOC(=O)C(O)(c2ccccc2)c2ccccc2)CC1 | inactive: -6.98%
6 | CCN1CCCC(OC(=O)C2(O)c3ccccc3C=Cc3ccccc32)C1 (stereo not drawn) | inactive: 18.8%
7 | CN(C)C1CCCC1OC(=O)C(O)(c1ccccc1)c1ccccc1 (stereo not drawn) | inactive: 7.94%
8 | Cc1ccccc1C(=O)NCC1(N2CCCCC2)CCCCC1 | inactive: 0.133%
